Measurements taken from patent US10428060B2, “PI-kinase inhibitors with anti-infective activity” (The Board of Trustees of the Leland Stanford Junior …, priority 2011, dated 2019).

What was measured:
HRV = assay: Rhinovirus antiviral assay; type: cell-based; conditions: Human rhinovirus sp., read-out: HRV EC50
HCV genotype 2a = assay: microbe, parasite or virus in culture; type: cell-based; conditions: Hepatitis C virus, Huh7.5, read-out: HCV2a EC50
Experimental: Anti-HCV assay: Anti-HCV assays are performed as described by Cho et al. “Identification of a class of HCV inhibitors directed against the nonstructural protein NS4B.” Sci. Transl. Med. 2011; 2(15):15ra6.

| Compound | EC50 (HRV) | EC50 (HCV genotype 2a) |
| --- | --- | --- |
| COc1ccc(-c2sc(NCC3CCCCC3)nc2C)cc1S(=O)(=O)Nc1ccccc1F [Compound S-29, 5-[2-(cyclohexylmethylamino)-4-methyl-thiazol-5-yl]-N-(2-fluorophenyl)-2-methoxy-benzenesulfonamide] | < 1 nM |  |
| COc1ccc(-c2sc(NC(=O)[C@@H](C)C3CCCCC3)nc2C)cc1S(=O)(=O)Nc1ccc(O)cc1 [Compound S-138, (2S)-2-cyclohexyl-N-[5-[3-[(4-hydroxyphenyl)sulfamoyl]-4-methoxy-phenyl]-4-methyl-thiazol-2-yl]propanamide] | < 1 nM | 100 to 1000 nM |
| COc1ccc(-c2sc(NC(=O)CC3CCOCC3)nc2C)cc1S(=O)(=O)Nc1ccccc1C [Compound S-228, N-[5-[4-methoxy-3-(o-tolylsulfamoyl)phenyl]-4-methyl-thiazol-2-yl]-2-tetrahydropyran-4-yl-acetamide] | < 1 nM | 100 to 1000 nM |
